Activity calls are given as the source filed them. The calls are words filed in the database; no cut-off is given here.
Biological target: Collagenase ColQ1 (Bacillus cereus) (UniProt B9J3S4)
Experiment: Inhibition of full length Bacillus cereus ColQ1 assessed as reduction in Col 1 cleavage at 12.5 uM incubated for 3 hrs by SDS-PAGE analysis

inhibition: Active
Structure (SMILES): O=P(O)(O)c1nc2ccc(Br)cc2nc1P(=O)(O)O

Source: ChEMBL document CHEMBL5104188, “Discovery and Characterization of Synthesized and FDA-Approved Inhibitors of Clostridial and Bacillary Collagenases” (J Med Chem, 2022)
